Measured values from patent US9321773B2, “Compounds” (Respivert Ltd, priority 2009, dated 2016).

The chains behind the UniProt entries cited, without tags or fusion partners. Where a name states a change or a piece, a line headed by the entry shows the natural chain unless it says otherwise.
UniProt P42336, whole entry: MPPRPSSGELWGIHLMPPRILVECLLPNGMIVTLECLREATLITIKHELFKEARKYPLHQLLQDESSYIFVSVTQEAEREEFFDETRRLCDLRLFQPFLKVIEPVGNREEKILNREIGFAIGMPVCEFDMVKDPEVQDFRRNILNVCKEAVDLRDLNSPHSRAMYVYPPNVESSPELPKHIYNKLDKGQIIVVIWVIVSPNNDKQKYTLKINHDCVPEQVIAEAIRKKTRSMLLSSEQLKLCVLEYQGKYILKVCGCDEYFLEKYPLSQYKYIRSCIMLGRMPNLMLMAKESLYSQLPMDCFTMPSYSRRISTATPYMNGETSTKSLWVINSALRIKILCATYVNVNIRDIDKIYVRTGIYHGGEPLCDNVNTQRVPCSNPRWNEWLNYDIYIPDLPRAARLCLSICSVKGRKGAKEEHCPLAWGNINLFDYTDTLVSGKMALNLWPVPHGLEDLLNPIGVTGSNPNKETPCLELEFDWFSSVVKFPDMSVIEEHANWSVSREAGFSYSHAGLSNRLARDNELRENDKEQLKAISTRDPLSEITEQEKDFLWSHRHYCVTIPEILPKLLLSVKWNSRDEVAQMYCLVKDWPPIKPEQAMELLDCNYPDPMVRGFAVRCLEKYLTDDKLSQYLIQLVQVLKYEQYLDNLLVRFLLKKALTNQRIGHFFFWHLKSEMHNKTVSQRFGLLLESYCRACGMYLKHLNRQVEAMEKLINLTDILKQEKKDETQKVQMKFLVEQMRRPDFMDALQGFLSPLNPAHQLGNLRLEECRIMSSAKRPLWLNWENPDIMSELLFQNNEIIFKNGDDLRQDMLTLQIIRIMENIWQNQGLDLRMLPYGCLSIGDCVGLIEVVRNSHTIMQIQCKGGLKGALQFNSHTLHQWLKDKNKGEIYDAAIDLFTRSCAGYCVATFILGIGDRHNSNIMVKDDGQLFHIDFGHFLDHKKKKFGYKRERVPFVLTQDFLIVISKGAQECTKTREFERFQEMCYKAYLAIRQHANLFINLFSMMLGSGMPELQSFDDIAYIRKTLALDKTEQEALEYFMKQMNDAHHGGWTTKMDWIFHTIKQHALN
UniProt P48736, whole entry: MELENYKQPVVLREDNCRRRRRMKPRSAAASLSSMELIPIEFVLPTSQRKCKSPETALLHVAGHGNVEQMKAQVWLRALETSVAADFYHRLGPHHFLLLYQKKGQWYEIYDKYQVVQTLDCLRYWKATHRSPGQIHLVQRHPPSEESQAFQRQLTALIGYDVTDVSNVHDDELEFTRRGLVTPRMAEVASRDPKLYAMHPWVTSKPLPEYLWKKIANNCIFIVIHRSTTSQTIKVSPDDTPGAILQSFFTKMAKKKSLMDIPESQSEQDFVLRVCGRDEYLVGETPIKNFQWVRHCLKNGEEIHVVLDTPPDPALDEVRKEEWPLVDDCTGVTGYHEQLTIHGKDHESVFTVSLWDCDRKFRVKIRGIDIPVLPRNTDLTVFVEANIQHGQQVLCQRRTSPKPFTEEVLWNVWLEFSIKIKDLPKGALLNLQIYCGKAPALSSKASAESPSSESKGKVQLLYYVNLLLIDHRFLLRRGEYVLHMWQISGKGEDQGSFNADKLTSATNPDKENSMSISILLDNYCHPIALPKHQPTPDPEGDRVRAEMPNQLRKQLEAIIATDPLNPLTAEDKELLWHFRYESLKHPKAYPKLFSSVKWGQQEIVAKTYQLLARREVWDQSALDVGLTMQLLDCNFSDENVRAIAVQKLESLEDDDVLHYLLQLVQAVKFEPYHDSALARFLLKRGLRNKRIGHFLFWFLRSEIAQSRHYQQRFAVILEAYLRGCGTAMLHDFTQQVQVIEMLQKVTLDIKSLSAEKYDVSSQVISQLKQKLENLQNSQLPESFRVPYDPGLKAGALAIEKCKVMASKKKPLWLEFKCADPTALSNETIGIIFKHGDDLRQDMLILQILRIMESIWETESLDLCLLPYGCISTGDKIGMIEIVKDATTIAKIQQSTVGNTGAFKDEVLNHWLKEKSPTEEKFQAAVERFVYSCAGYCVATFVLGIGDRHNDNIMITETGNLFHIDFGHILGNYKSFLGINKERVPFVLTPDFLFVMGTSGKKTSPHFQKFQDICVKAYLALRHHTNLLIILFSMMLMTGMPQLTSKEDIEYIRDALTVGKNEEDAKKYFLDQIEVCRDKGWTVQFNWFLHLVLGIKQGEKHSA
UniProt O00329, whole entry: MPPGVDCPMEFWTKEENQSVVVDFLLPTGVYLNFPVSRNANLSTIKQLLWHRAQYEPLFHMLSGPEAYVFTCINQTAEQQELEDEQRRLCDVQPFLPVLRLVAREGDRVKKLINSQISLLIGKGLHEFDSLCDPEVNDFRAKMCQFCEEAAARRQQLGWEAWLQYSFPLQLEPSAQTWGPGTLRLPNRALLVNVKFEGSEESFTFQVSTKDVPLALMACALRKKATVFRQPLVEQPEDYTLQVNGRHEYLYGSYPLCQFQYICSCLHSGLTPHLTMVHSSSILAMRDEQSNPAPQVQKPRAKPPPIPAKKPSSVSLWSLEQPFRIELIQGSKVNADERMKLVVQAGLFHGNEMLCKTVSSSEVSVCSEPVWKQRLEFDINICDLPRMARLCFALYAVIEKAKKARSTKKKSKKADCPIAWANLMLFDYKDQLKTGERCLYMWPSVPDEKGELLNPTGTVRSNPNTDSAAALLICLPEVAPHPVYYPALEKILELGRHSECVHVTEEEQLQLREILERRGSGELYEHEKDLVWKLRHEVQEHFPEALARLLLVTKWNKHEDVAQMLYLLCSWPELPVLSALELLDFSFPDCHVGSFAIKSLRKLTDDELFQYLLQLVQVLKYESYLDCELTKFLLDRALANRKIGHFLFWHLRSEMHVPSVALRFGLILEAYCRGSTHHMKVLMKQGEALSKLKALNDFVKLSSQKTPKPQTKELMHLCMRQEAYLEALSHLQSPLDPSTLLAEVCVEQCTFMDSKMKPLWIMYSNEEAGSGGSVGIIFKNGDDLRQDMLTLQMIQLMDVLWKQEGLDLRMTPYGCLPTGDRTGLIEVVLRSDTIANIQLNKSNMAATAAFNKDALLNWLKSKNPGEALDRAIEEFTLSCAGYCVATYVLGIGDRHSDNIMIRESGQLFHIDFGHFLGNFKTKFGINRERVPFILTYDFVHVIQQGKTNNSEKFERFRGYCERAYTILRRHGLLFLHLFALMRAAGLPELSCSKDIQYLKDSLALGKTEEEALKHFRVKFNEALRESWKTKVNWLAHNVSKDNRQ
UniProt P27986, whole entry partner: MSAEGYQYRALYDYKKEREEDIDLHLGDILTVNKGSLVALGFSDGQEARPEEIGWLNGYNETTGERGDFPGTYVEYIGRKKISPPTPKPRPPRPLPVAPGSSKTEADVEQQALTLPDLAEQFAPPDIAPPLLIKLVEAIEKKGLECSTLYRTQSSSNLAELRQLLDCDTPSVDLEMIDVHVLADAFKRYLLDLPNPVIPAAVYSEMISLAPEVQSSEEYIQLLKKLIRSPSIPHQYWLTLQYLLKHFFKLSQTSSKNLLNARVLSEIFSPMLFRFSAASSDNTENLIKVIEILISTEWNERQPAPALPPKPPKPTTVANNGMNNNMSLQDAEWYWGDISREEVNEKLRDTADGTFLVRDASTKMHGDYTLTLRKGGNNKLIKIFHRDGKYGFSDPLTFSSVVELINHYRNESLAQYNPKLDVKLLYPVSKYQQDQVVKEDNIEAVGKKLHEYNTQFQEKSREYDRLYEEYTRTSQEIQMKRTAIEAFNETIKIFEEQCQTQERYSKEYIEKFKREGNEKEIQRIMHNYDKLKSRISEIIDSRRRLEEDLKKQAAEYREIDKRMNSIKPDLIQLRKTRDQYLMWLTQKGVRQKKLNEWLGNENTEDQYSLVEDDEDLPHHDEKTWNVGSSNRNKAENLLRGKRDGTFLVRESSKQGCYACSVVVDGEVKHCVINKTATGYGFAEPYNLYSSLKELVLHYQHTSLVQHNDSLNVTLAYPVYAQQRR

Tests used:
recombinant PI3 kinase α = recombinant PI3 kinase α (Homo sapiens (Human), UniProt P42336); assay: Enzyme Inhibition Assay (HTRF PI3K enzyme assay, TR-FRET); assay type: biochemical; conditions: read-out: PI3 Kinase Inhibition IC50 values at stated Isozyme α; activity range
recombinant PI3 kinase γ = recombinant PI3 kinase γ (Homo sapiens (Human), UniProt P48736); assay: as above; assay type: biochemical; conditions: read-out: PI3 Kinase Inhibition IC50 values at stated Isozyme γ; activity range
recombinant PI3 kinase δ = recombinant PI3 kinase δ (Homo sapiens (Human), UniProt O00329); assay: as above; assay type: biochemical; conditions: read-out: PI3 Kinase Inhibition IC50 values at stated Isozyme δ; activity range
[1] = Stereochemical analysis by chiral stationary phase HPLC (atropisomerism); assay type: physicochemical; conditions: chiral stationary phase HPLC (16 different conditions for the examples)
[2] = tested on: H2O2 induced pAkt in D-U937 cells

Row | SMILES | IC50 (recombinant PI3 kinase α) [nM] | IC50 (recombinant PI3 kinase γ) [nM] | IC50 (recombinant PI3 kinase δ) [nM] | atropisomerism by chiral stationary phase HPLC [1] | IC50 [2] [nM]
1 | C#Cc1cccc2nc(Cn3nc(-c4ccc(O)cc4)c4c(N)ncnc43)n(Cc3cccc(C#N)c3)c(=O)c12 | 50 to 1000 | 50 to 1000 | < 50 | no evidence for atropisomerism was observed | < 10
2 | Nc1ncnc2c1c(-c1ccc(O)cc1)nn2Cc1nc2cccc(C#CCCCC(=O)NC3CCNC3)c2c(=O)n1Cc1ccccc1Cl (stereo not drawn) | 50 to 1000 | < 50 | < 50 |  | < 10
